deltaS and deltaH data for one compound are collected here from ChEMBL document CHEMBL5030542, “Pillar[5]arene-Based Polycationic Glyco[2]rotaxanes Designed as Pseudomonas aeruginosa Antibiofilm Agents” (J Med Chem, 2021).

Test [1] concerns the target Fucose-binding lectin PA-IIL (Pseudomonas aeruginosa (strain ATCC 15692 / DSM 22644 / CIP 104116 / JCM14847 / LMG 12228 / 1C / PRS 101 / PAO1)) (UniProt Q9HYN5). The test is described as follows: Binding affinity to recombinant Pseudomonas aeruginosa LecB expressed in Escherichia coli assessed as change in entropy by isothermal titration calorimetry. Background: Isothermal titration calorimetry measures the heat released or taken up as one component is titrated into another.

Test [2] has the same target. The test is described as follows: Binding affinity to recombinant Pseudomonas aeruginosa LecB expressed in Escherichia coli assessed as change in enthalpy by isothermal titration calorimetry.

As for `CO[C@@H]1O[C@@H](C)[C@@H](O)[C@@H](O)[C@@H]1O`, in test [1], the deltaS is 1.17 kcal/mol. In addition, the deltaH in test [2] is -9.87 kcal/mol.
